{"source": "patent US11279682B2", "about": "(H. Lundbeck A/S, priority 2015, dated 2022)", "origin": "cited, not measured here", "details": "known salts, values from the cited reference; cited from earlier work"}
{"substance": "Meso-tartrate", "values": [{"measurement": "Solubility", "result": 700, "unit": "µg/mL"}]}
